# Columns and labels:
# [1] = target: human RACK1 (receptor of activated kinase 1), 6xHis-tagged (human) (UniProt P63244); test: AUC; sedimentation equilibrium, 4 °C, 12,000, 15,000 and 18,000 rpm; RACK1 at 0.3 mg/mL; monomer-dimer-tetramer self-association model (SedPhat); step: dimer to tetramer
# [2] = target: human RACK1 (receptor of activated kinase 1), 6xHis-tagged (human) (UniProt P63244); test: AUC; sedimentation equilibrium, 4 °C, 12,000, 15,000 and 18,000 rpm; RACK1 at 0.3 mg/mL; monomer-dimer-tetramer self-association model (SedPhat); step: monomer to dimer
substance,measurement,setting,value
"human RACK1 (receptor of activated kinase 1), 6xHis-tagged (from UniProt P63244 1-317) (natural protein)",Ka,[1],600000 M⁻¹
same,Kd,[1],17 µM
same,Ka,[2],200000 M⁻¹
same,Kd,[2],51 µM

# From paper PMC2896345
